# Read-outs that look alike come from different tables or passages of the source.
# What was measured:
# [1] = PBS buffer, pH 7, clearness observed by eye
# [2] = pH 7; from AAPS PharmSciTech 2007; 8 (3) Article 62; cited from earlier work
# [3] = 24 hours stirring at room temperature
substance,measurement,setting,value
buprenorphine 6-isobutyrate [BuC4],Amount of solubilized prodrug,[1],<0.8 mg/mL
buprenorphine hydrochloride [BuHCl],Amount of solubilized prodrug,[2],17 mg/mL
buprenorphine 6-myristate [BuC14],amount of prodrug solubilized in the polymer solution,"[3]; sodium polyacrylate grafted at 6 mol % alpha-tocopherol via alanine spacer, 32.4 mg/mL, visual control",0.4 mg/mL
same,amount of prodrug solubilized in water,[3]; water,less than 0.2 mg/mL
buprenorphine 6-enanthate [BuC7],Amount of solubilized prodrug,[1],<0.6 mg/mL

# From US20120308614A1, “COMPOSITION FOR THE CONTROLLED RELEASE OF BUPRENORPHINE” (Flamel Technologies, priority 2011, published 2012)
